This is a selection; strong and weak results do not stand in their true shares. Results filed as inconclusive are left out. Activity calls are given as the source filed them. The call rests on the fitted dose curve; in most records, active means well fitted inhibition curve with a large enough effect; inconclusive means small, poorly fitted or top-dose-only effect; inactive means no such curve, though single readings can be large or run the other way.

Chains of the proteins cited; added tags and fusions are not shown.
UniProt O95398, whole entry: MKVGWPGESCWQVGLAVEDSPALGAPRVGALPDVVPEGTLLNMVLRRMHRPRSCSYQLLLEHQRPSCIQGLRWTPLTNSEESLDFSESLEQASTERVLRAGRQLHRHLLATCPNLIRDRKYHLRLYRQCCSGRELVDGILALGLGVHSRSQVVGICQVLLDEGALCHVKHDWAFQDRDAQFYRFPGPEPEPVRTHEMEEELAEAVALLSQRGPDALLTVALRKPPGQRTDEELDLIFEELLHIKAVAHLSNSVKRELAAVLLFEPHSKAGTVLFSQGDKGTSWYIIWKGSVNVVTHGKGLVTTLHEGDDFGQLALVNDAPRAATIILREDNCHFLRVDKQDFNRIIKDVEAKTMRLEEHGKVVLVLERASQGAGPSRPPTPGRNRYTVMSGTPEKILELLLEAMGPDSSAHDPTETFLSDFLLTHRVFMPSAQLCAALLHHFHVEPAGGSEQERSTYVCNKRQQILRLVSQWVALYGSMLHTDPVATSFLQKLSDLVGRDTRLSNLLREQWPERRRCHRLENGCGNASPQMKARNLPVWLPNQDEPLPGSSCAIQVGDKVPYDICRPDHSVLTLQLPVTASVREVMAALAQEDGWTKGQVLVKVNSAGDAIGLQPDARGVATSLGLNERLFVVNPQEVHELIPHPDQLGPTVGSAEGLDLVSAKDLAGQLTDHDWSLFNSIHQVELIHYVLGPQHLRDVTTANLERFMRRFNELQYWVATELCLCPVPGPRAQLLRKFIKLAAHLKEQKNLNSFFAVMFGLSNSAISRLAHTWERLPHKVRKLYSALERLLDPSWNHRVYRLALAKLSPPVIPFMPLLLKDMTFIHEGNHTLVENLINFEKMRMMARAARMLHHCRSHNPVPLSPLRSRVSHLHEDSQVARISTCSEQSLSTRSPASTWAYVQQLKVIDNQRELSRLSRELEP

For this test, the target named is Rap guanine nucleotide exchange factor 3 (Homo sapiens) (UniProt O95398). Description: Validation qHTS for antagonist of cAMP-regulated guanine nucleotide exchange factor 3 (EPAC1). Further: nearly all actives have a fitted effect of over 75% in size. The following applies: EPAC1 Rap1B-BODIPY-GDP exchange, fluorescence. The source says:
Assay Provider (PI): Xiaodong Cheng Ph.D.
The University of Texas Medical Branch, […], TX
In multi-cellular eukaryotic organisms, the effects of cAMP are transduced by two ubiquitously-expressed intracellular cAMP receptors, the classic protein kinase A/cAMP-dependent protein kinase (PKA/cAPK) and the more recently discovered exchange protein directly activated by cAMP/cAMP-regulated guanine nucleotide exchange factor (EPAC/cAMP-GEF). Both PKA and EPAC are ubiquitously expressed in all tissues, and an increase in intracellular cAMP levels will lead to the activation of both PKA and EPAC. Therefore, careful dissections of the individual role and relative contribution of EPAC and PKA within the overall cAMP signaling in various model systems are critical for further elucidating the mechanism of cAMP signaling. To date no EPAC-specific antagonists and agonist, as well as isoform-specific agonists have been reported, and developing EPAC-specific pharmacological probes to determine the physiological functions that EPAC play in the overall cAMP-mediated signaling remains a major challenge within the research field. Furthermore, identified regulators of EPAC may lead to new mechanism-based therapeutic strategies specifically targeting the EPAC / cAMP-signaling components as EPAC has been implicated to play important roles in major human pathological conditions such as diabetes, heart disease, and cancer.
This qHTS will be used to screen the Molecular Libraries Small Molecule Repository (MLSMR) as a concentration-titration series using the NCGC unique quantitative screening (qHTS) platform to find activators for EPAC1. In addition, this assay will also be used as a counterscreen for the EPAC2 qHTS. This fluorescent based assay is developed and validated for EPAC1 that measures exchange using EPAC effector Rap1 complex with BODIPY-GDP, a GDP analog with a tethered fluorophores. Activators are identified by monitoring the change in fluorescence signal as the exchanged free BODIPY-GDP has a reduced fluorescence compared to Rap1-bound BODIPY-GDP. Increase in signal (activation) is the desired outcome for the EPAC1 agonist while no activity in this assay is desired for the EPAC2 agonist counterscreen.
[1] de Rooij, J., Zwartkruis, F. J., Verheijen, M. H., Cool, R. H., Nijman, S. M., Wittinghofer, A., and Bos, J.L. (1998) Nature 396, 474-477.
Briefly, three uL of reagents (100 nM EPAC1, 250 nM RAP1B-BODIPY-GDP, 50 uM GDP) were dispensed into a 1536-well Greiner black solid-bottom medium binding assay plate. Controls and test compounds (23 nL) were transferred to the plate via a Kalypsys pin tool equipped with a 1536-pin array. The plates were centrifuged at 1,000 rpm for 15 seconds followed by 5 minute incubation at room temperature. The assay plates were read at 5 minute intervals for 30 minutes in the ViewLux plate reader using 480nm excitation and 540nm emission filters. The results were normalized to the […] positive control ATA and DMSO.
A general note: Quantitative high-throughput screening tests each substance at several concentrations.

On to `CCOP(=O)(CC)Oc1ccc([N+](=O)[O-])cc1` (configuration not stated), for which the activity change, negative = inhibition (at 150 µM (top of the series)) is inactive: 23.7%.
As to `Cc1cccc([N+](=O)[O-])c1[N+](=O)[O-]`, under “at 320 µM (top of the series)”, the activity change, negative = inhibition was inactive: 34%.
With `CCN(CCCl)Cc1ccccc1C`, the activity change, negative = inhibition (at 150 µM (top of the series)) is inactive: 22.3%.
For `C/C1=C2N=C(/C=C3N=C(/C(C)=C4\[N-][C@@](C)([C@@H]5N=C1[C@](C)(CCC(=O)NC[C@@H](C)OP(=O)([O-])O[C@H]1[C@@H](O)[C@@H](n6cnc7cc(C)c(C)cc76)O[C@@H]1CO)[C@H]5CC(N)=O)[C@@](C)(CC(N)=O)[C@@H]4CCC(N)=O)[C@@](C)(CC(N)=O)[C@@H]\3CCC(N)=O)C(C)(C)[C@@H]/2CCC(N)=O.[C-]#N.[Co+3]`, under “at 75.8 µM (top of the series)”, the activity change, negative = inhibition is inactive: 6.61%.
`OCCSCCO`: the activity change, negative = inhibition (at 150 µM (top of the series)) was inactive: -18%.
For `CC(C)OP(=O)(F)OC(C)C`, for the setting “at 150 µM (top of the series)”, the activity change, negative = inhibition was inactive: -8.66%.
Take `O=[N+]([O-])[O-].[NH4+]`: the activity change, negative = inhibition (at 150 µM (top of the series)) was inactive: 16.9%.
With `CN(C)CCS`, the activity change, negative = inhibition (at 150 µM (top of the series)) was inactive: 9.56%.
As for `CC(C)N(CCCl)C(C)C`, where the note is “at 150 µM (top of the series)”, the activity change, negative = inhibition was inactive: -8.49%.
On to `O=[N+]([O-])OCC(CO[N+](=O)[O-])(CO[N+](=O)[O-])CO[N+](=O)[O-]`, for which, under “at 150 µM (top of the series)”, the activity change, negative = inhibition was inactive: 2.46%.
Take `O=[N+]([O-])c1cccc([N+](=O)[O-])c1`: the activity change, negative = inhibition is, setting by setting: (at 150 µM (top of the series)) inactive: -0.322%; (at 320 µM (top of the series)) inactive: 21.9%.

The values are drawn from PubChem BioAssay AID1645882 (National Center for Advancing Translational Sciences (NCATS), 2021).
